System: P. falciparum 3D7 parasites
Assay: Asexual erythrocytic-stage SYBR Green I proliferation assay, 1536-well
Format: cell-based
Conditions: Plasmodium falciparum, 3D7, read-out: P. falciparum (blood) IC50

CCC[C@@H]1C[C@@H](C(=O)N[C@@H]([C@H]2O[C@H](SC)[C@H](O)[C@@H](O)[C@H]2O)[C@H](C)Cl)N(C)C1 [Clindamycin]
IC50: 198 nM

Source: paper PMC4890880 (ACS infectious diseases, 2016)
